Assay results taken from BindingDB's records for doi:10.1016/S0960-894X(02)01050-8 (The University of Texas At Houston, 2003).

Chains of the proteins cited; added tags and fusions are not shown.
UniProt P42227, whole entry: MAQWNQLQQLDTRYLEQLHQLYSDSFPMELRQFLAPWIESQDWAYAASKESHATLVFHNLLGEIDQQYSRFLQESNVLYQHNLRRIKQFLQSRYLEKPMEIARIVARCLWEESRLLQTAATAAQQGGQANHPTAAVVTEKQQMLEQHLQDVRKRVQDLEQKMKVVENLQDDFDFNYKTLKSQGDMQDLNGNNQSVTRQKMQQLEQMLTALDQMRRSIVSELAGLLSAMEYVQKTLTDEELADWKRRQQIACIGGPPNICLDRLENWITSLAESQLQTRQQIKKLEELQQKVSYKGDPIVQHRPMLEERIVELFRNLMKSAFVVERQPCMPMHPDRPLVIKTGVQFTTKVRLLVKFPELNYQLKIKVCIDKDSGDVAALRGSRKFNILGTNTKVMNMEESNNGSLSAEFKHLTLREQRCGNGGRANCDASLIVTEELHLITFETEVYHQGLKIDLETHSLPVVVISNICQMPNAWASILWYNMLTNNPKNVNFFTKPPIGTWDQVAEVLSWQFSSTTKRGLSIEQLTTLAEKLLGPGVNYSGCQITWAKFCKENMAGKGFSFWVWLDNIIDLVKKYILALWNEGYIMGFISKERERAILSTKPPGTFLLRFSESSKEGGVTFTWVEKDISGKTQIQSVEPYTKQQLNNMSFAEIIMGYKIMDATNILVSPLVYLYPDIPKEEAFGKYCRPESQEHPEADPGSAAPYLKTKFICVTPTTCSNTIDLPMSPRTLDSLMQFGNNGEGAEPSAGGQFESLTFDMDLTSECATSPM

Molecular target: Signal transducer and activator of transcription 3 (Mus musculus, UniProt P42227)
Test: Electrophoretic Mobility Shift Assay (EMSA)
Conditions: pH 7.8; 22 °C
Procedure: His10-Stat3 was expressed in Sf9 cells from a baculovirus encoding the recombinant protein. A nuclear extract of the Sf9 cells was incubated with 32P-labeled high affinity c-fos sis inducible element (hSIE) either alone or in the presence of inhibitor. After 20 min of incubation, samples were electrophoresed on polyacrylamide gels. The gels were dried, exposed to a phosphorimager screen and scanned. IC50 values were derived from plots of spot intensity versus phosphopeptide concentration. The affinity of peptides to the SH2 domain is measured by the intensity of the radioactivity of the Stat3-DNA complex band in the electrophoresis gel.

- IC50: 150 µM
Structure (SMILES): CC(=O)N[C@@H](Cc1ccc(OP(=O)(O)O)cc1)C(=O)N[C@@H](Cc1cnc[nH]1)C(=O)N[C@@H](CC(N)=O)C(=O)N[C@@H](CCC(N)=O)C(=O)N1CCC[C@H]1C(=O)N[C@@H](CC(C)C)C(N)=O [4-[(2S)-2-{[(1S)-1-{[(1S)-2-carbamoyl-1-{[(2S)-4-carbamoyl-1-[(2S)-2-{[(1S)-1-carbamoyl-3-methylbutyl]carbamoyl}pyrrolidin-1-yl]-1-oxobutan-2-yl]carbamoyl}ethyl]carbamoyl}-2-(1H-imidazol-4-yl)ethyl]carbamoyl}-2-acetamidoethyl]phenoxyphosphonic acid]
